The chains behind the UniProt entries cited, without tags or fusion partners. Residues count along the entry.
UniProt P37231, 235-505: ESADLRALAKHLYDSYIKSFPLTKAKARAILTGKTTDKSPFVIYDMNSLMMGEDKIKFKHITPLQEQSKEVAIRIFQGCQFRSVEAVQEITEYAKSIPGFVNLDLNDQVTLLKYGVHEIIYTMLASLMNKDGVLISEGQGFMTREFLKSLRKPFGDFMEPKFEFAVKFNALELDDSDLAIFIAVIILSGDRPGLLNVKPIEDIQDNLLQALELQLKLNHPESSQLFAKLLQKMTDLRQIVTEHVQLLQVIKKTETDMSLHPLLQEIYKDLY

According to paper PMC11826995, “Modulation of Protein–Protein Interactions with Molecular Glues in a Synthetic Condensate Platform” (Journal of the American Chemical Society, 2025):

Biological target: T1, PPARγ/PRIPRAP (Homo sapiens, UniProt P37231)
T1 construct: made in house; host or cells: bacterial culture with IPTG induction
Assay: Confocal microscopy of PRIPRAP coregulator recruitment to PPARγ-loaded condensates
Type: biochemical
Conditions: 10 μM ligand, 100 nM PRIPRAP, 400 nM PPARγ, overnight

- PRIPRAP recruitment to PPARγ-loaded condensates relative to DMSO control: significant recruitment of PRIPRAP
Substance: MRL-24
